Assay [1] deals with Ba/F3 cells carrying EML4-ALK G1202R mutation. Put plainly: Ba/F3 EML4-ALK G1202R xenograft efficacy. It is filed as in vivo, SCID mice. As to conditions: Day 15, treated for 2 weeks.
The test system of assay [2] is NSCLC PDX LD1–0006-390,637 harboring ALK L1196M_G1202R double mutations. Put plainly: NSCLC PDX LD1–0006-390,637 efficacy. It is filed as in vivo, NU/NU mice.

As to `C[C@@H](Oc1cc(-c2cnn(C3CCNCC3)c2)cnc1N)c1c(Cl)ccc(F)c1Cl` [crizotinib], the T/C % in assay [1] is on record as 84.3%.

In the case of `CCc1cc2c(cc1N1CCC(N3CCOCC3)CC1)C(C)(C)c1[nH]c3cc(C#N)ccc3c1C2=O` [Alectinib], in assay [1], the T/C % stood at 130%. For the same compound, the “relapse observed on Day” value in assay [2] (first experiment) worked out at 28 days. The “time mCR was sustained” value in assay [2] (independent repeat experiment) is on record as “at least 3 weeks”. For the same compound, the mCR in assay [2] (independent repeat experiment (Suppl. Fig. 2B)) and in assay [2] (on Day 16 of treatment) was 100% throughout. Moreover, the “tumor status when lorlatinib group progressed (in words)” value in assay [2] (independent repeat experiment, Day 39) was “remained unpalpable”.
